Values of other authors, collected in paper PMC10388327, “Dual Piperidine-Based Histamine H3 and Sigma-1 Receptor Ligands in the Treatment of Nociceptive and Neuropathic Pain” (Journal of Medicinal Chemistry, 2023).

Molecular target: H3R
Design: method as in PMID 30359639
Conditions: Figure 1, compounds evaluated in clinical trials; cited from earlier work

Clc1ccc(CCCOCCCN2CCCCC2)cc1 [Pitolisant]
pKi: 8.62 to 9.00

pKi: −log10 of the molar value.
